This is an account of results in ChEMBL document CHEMBL1150040, “Ring size effect in the PKC inhibitory activities of perhydroazepine analogs of balanol” (Bioorg Med Chem Lett, 1995).

The target of the test is T1, Protein kinase C epsilon type (Homo sapiens, UniProt Q02156).
T1 sequence (Q02156 whole entry): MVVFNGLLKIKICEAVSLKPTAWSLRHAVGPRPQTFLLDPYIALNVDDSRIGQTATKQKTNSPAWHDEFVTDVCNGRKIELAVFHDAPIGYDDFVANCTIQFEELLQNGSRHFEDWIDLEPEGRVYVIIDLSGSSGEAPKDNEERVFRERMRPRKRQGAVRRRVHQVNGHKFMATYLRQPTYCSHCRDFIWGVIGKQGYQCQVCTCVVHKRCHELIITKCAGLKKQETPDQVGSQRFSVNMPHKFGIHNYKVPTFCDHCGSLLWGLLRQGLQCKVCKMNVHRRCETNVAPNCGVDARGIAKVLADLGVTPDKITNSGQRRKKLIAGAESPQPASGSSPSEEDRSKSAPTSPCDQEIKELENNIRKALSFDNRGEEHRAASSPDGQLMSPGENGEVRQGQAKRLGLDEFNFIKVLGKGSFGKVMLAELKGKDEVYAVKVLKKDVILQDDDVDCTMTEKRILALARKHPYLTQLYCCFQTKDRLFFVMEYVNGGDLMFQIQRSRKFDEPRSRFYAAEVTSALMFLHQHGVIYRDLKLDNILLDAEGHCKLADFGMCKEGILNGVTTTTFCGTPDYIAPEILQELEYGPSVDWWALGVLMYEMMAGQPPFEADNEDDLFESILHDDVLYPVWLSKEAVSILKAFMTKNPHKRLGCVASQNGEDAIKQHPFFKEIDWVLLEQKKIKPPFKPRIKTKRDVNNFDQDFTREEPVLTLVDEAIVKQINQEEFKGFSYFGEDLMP
Put plainly: Inhibition of human Protein kinase C epsilon.

`O=C(N[C@@H]1CNCCC[C@H]1OC(=O)c1cc(O)c(C(=O)c2c(O)cccc2C(=O)O)c(O)c1)c1ccc(O)cc1` (racemic) [BALANOL] had an IC50 of 49 nM.
